Reference: ChEMBL document CHEMBL1122178, “N-Methylnalorphine: definition of N-allyl conformation for antagonism at the opiate receptor” (J Med Chem, 1982)

The chains behind the UniProt entries cited, without tags or fusion partners. Where a name states a change or a piece, a line headed by the entry shows the natural chain unless it says otherwise.
UniProt P42866: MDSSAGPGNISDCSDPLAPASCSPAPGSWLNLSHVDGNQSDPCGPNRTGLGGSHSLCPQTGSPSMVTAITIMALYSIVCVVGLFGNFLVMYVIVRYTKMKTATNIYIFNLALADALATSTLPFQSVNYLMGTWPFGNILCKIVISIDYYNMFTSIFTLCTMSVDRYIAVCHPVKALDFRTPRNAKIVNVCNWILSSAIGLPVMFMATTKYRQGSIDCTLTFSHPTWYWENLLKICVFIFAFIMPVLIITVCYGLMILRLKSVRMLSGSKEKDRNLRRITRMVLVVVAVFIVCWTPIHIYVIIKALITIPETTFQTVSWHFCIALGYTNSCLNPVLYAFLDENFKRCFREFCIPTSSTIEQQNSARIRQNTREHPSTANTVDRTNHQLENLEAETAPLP
UniProt P32300: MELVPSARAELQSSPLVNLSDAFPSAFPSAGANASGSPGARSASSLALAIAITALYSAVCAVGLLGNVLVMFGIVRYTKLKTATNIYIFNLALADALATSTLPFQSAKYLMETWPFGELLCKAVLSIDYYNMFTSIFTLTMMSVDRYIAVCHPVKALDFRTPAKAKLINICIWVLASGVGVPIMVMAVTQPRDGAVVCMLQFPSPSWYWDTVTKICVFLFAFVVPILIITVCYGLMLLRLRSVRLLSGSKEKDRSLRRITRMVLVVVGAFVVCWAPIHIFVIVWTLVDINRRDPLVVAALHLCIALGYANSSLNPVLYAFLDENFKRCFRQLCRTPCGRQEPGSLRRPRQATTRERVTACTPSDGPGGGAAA
UniProt P33534: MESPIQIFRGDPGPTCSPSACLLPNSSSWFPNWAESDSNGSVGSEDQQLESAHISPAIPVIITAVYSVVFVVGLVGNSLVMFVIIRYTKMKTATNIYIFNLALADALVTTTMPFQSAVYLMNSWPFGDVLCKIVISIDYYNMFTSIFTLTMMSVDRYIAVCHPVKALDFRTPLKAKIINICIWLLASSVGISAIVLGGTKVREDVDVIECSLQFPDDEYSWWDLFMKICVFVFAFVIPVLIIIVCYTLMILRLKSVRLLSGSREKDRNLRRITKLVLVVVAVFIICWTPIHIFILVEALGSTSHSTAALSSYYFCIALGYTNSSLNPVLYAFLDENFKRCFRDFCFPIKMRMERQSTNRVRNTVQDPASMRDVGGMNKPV

Experiments:
Opioid receptor [1] = biological target: T1, Opioid receptor (Mus musculus, UniProt P42866+P32300+P33534); test: Concentration required to inhibit the stereospecific [3H]diprenorphine binding Opioid receptors in the presence of sodium(Na+) was determined in mouse isolated vas deferens; assay type: protein assay
Opioid receptor [2] = biological target: T1, Opioid receptor; test: Concentration required to inhibit the stereospecific [3H]diprenorphine binding Opioid receptors in the absence of sodium(Na+) was determined in mouse isolated vas deferens; assay type: protein assay

SMILES: C=CCN1CC[C@]23c4c5ccc(O)c4O[C@H]2[C@@H](O)C=C[C@H]3[C@H]1C5 [NALORPHINE]
- IC50 (Opioid receptor [1]): 160 nM
- IC50 (Opioid receptor [2]): 59 nM
